Sequences of proteins named here, by UniProt entry; tags and fusion partners are left off.
UniProt Q13547, whole entry: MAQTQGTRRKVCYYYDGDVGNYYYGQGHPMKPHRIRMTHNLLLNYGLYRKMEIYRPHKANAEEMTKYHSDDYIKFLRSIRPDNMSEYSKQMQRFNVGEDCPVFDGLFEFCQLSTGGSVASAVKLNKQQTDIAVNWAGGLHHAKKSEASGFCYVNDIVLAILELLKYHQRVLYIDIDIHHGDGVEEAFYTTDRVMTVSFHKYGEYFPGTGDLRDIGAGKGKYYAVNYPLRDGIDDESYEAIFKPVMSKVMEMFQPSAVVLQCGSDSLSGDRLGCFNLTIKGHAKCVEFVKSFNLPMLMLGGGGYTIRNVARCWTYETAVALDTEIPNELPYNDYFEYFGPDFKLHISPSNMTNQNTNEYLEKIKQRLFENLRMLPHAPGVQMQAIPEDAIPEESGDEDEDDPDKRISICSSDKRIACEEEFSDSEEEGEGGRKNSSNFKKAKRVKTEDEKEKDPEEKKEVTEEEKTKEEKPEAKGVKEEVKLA

According to paper PMC2919064 (Journal of medicinal chemistry, 2010):

What was measured:
HDAC1 = HDAC1 (Homo sapiens, UniProt Q13547); test: HDAC isoform inhibition assay
HDAC6 = biological target: T1, HDAC6 (Homo sapiens, UniProt Q9UBN7); test: HDAC isoform inhibition assay
T1 sequence (Q9UBN7 1-1215): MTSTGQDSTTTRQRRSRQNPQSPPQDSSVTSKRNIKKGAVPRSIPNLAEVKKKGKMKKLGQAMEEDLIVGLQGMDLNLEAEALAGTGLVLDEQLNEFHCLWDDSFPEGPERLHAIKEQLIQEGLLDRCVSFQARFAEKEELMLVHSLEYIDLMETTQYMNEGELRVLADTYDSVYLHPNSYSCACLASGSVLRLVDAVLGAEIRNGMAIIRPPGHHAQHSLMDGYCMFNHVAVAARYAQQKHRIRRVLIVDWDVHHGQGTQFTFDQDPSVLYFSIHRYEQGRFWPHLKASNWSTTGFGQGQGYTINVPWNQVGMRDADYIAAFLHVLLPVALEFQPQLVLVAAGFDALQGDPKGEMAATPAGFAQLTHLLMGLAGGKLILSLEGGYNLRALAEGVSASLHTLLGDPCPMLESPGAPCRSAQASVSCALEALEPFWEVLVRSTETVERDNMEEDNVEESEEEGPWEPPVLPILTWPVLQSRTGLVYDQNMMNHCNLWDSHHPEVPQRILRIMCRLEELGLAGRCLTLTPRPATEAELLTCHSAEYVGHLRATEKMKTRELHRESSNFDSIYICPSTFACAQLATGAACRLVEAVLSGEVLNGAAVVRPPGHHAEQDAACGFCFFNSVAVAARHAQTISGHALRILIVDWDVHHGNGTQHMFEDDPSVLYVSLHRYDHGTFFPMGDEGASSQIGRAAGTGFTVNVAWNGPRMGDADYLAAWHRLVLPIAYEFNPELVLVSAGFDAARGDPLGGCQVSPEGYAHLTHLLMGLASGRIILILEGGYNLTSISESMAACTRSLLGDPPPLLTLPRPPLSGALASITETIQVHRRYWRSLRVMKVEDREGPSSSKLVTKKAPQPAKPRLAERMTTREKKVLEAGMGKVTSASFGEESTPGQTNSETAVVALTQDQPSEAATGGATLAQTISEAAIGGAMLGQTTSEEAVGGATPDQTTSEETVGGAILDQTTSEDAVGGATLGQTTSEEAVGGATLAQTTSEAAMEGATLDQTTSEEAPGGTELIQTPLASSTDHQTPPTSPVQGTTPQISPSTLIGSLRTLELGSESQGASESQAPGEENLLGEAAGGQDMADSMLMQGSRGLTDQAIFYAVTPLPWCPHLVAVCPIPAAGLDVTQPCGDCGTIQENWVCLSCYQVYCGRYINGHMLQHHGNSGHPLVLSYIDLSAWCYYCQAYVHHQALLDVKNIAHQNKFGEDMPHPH

- pIC50 (HDAC1): 9.00
- pIC50 (HDAC6): 8.60
SMILES: Nc1cccc(-n2cc(-c3cccc(NC(=O)CCCCCCC(=O)NO)c3)nn2)c1

pIC50: −log10 of the molar value.
